# Antibody variant affinities, Ab-14 light chain, assay 1

Target: peptide PDVDLGDISGINAS, taken from heptad repeat 2 (HR2) of SARS-CoV-2 spike.

Each scFv is VH, three GGGGS repeats, VL, as in the parent Ab-14, and differs from it in the CDRs of the light chain only.
VH: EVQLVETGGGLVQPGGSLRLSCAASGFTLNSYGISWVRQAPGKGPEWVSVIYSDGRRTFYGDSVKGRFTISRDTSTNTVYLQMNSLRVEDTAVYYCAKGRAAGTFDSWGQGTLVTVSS
VL: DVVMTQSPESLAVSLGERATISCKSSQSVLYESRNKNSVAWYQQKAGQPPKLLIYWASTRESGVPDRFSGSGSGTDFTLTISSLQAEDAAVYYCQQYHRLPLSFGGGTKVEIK

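In library AAYL50, one, two or three CDR residues were substituted; doubles and triples were drawn at random. The scFvs were displayed on barcoded MATa yeast, the peptide on MATalpha yeast. Mating (16 h, 30 °C) was followed by selection of diploids and sequencing of their barcodes. Each replicate has its own calibration line, from reference interactions of the BCL2 family. Mating was done three times.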

Each variant is given by its three light chain CDRs, as the data file delimits them; those of the parent are KSSQSVLYESRNKNSVA, WASTRES, QQYHRLPLS.
This list gathers variants with a substitution at S26 (VL, numbered from residue 1).
Numbers give log10(Kd / nM), so 0 is 1 nM and 3 is 1 µM. Smaller is tighter.
The mean shown is taken over the replicates in which the pair was detected.
An entry "nd" has no value in the source: the pair was not observed among the diploids in any replicate. This suggests poor binding but is not conclusive.
Order: sorted from the lowest average up, undetected variants last.
Parent in this assay: reference entry 0.65, copy in this library 1.68.

With KVFQSVLYESRNKNSVA / WASTREV / QQYHRLPLS the result was 0.90 (3 of 3 replicates; controls 0 of 9). For KSHQSVLYESRNKNSVA / WASTRES / QQYHRLPLS, the assay gave 1.18 (3 of 3 replicates; controls 2 of 9). For KSVQSVLYEQRNKNSVA / WASCRES / QQYHRLPLS, the assay gave 1.27 (3 of 3 replicates; controls 0 of 9). For KSQQSVLYESRNKNSVA / WASYRES / QQYHRTPLS, the assay gave 1.35 (3 of 3 replicates; controls 4 of 9). Variant KSRQSVLYESRNKNSVA / WASTRES / QQYHALPLS showed 1.36 (3 of 3 replicates; controls 0 of 9). Variant KSYCSVLQESRNKNSVA / WASTRES / QQYHRLPLS showed 1.39 (3 of 3 replicates; controls 0 of 9). Variant KFQQSVLYESRNKNSVA / WASTRES / QQYHHLPLS gave 1.40 (3 of 3 replicates; controls 3 of 9).

For KSHMSVLYESRNKNSVA / WASTRES / QQYHRLPLS, the assay gave 1.42 (3 of 3 replicates; controls 0 of 9). Variant KSMQSVLYESRNKNSVA / WASTRES / QQYHRMPLS gave 1.45 (3 of 3 replicates; controls 0 of 9). With KSMQSVLYESRNINSVA / WASTRES / QQYHRYPLS the result was 1.48 (3 of 3 replicates; controls 2 of 9). With KSAQSVLYESRNKNSVA / WASFRES / QQYHRLPLS the result was 1.50 (3 of 3 replicates; controls 2 of 9). For KSVQSVLYESRNKNSVA / WASTRES / QQYHRLPLS, the assay gave 1.63 (3 of 3 replicates; controls 6 of 9). With KSHQSVLYESRNKNHVA / WASTRYS / QQYHRLPLS the result was 1.85 (3 of 3 replicates; controls 1 of 9). For KNPQSVLYESRNGNSVA / WASTRES / QQYHRLPLS, the assay gave 1.88 (3 of 3 replicates; controls 4 of 9).

Variant KSEQSVLYESRNCNSVA / WASTRES / QPYHRLPLS gave 2.11 (3 of 3 replicates; controls 1 of 9). With KSWQSVLYERRNKNSVA / WASTRED / QQYHRLPLS the result was 2.16 (3 of 3 replicates; controls 0 of 9). With KSYQSVLYKSANKNSVA / WASTRES / QQYHRLPLS the result was 2.21 (3 of 3 replicates; controls 2 of 9). Variant MSKQSVLYESRNKNSVA / WASTRES / QQFHRLPLS showed 2.22 (3 of 3 replicates; controls 1 of 9). For KSPQSVEYESRNKNDVA / WASTRES / QQYHRLPLS, the assay gave 2.26 (3 of 3 replicates; controls 0 of 9). For KSVQSELYESRNKNSVA / WASTRES / EQYHRLPLS, the assay gave 2.38 (3 of 3 replicates; controls 3 of 9). Variant KDDQSVLYEIRNKNSVA / WASTRES / QQYHRLPLS showed 2.43 (3 of 3 replicates; controls 0 of 9).

With KHKQSVLYESRNKSSVA / WASTRES / QQYHRLPLS the result was 2.60 (3 of 3 replicates; controls 8 of 9). Variant KSWQEALYESRNKNSVA / WASTRES / QQYHRLPLS showed 2.83 (3 of 3 replicates; controls 5 of 9). For KSWQSNLYESRNKNSVA / WASTRES / QQYHRLPLC, the assay gave 3.03 (2 of 3 replicates; controls 3 of 9). For KSAQSVLYESRNKNSVA / WLSTRES / GQYHRLPLS, the assay gave 3.35 (3 of 3 replicates; controls 2 of 9). For KSFRSVLYESRNKNSVA / WASTRES / QQYHRLSLS, the assay gave 3.44 (1 of 3 replicates; controls 2 of 9). Variant KSCQSVLYESRNKNSVA / WASTRHS / QAYHRLPLS gave 3.58 (2 of 3 replicates; controls 3 of 9). Variant KSQQSVLQESRNKNSVA / WASTAES / QQYHRLPLS showed 3.69 (3 of 3 replicates; controls 3 of 9).

Variant KSYQSVLYECRNKNSVA / WASTRES / QQYPRLPLS gave 3.78 (2 of 3 replicates; controls 2 of 9). For KSELSVLYESRNKNSVE / WASTRES / QQYHRLPLS, the assay gave 3.95 (1 of 3 replicates; controls 4 of 9). Variant KSFQGVLYESRNKNSVA / WASTRES / QVYHRLPLS showed 4.44 (3 of 3 replicates; controls 5 of 9). With KSKQSVLYECRNKNSVA / WASTRES / QQYHRLPLS the result was 4.45 (1 of 3 replicates; controls 1 of 9). For KSHQSVLYESRNINSVA / WASTRES / QQYHRLPQS, the assay gave 4.49 (1 of 3 replicates; controls 3 of 9). With KSMQSVKYESRNKNSVA / WASTRES / FQYHRLPLS the result was 5.09 (1 of 3 replicates; controls 2 of 9). For KSLQSVLYESRNKNSVA / WASTRES / QCYHRLPLW, the assay gave nd (0 of 3 replicates; controls 1 of 9).

With KSPQSVLYESRNKNSVA / WAWTRES / AQYHRLPLS the result was nd (0 of 3 replicates; controls 1 of 9). Variant KSGQSVLYESRNKNSVA / WASTRES / QQGHVLPLS gave nd (0 of 3 replicates; controls 0 of 9). For KSLQSVLYESRNKNSVA / WVSTREQ / QQYHRLPLS, the assay gave nd (0 of 3 replicates; controls 0 of 9). For KSTQSVLYESRNKNSCA / WASTEES / QQYHRLPLS, the assay gave nd (0 of 3 replicates; controls 0 of 9). Variant FSQQSVLTESRNKNSVA / WASTRES / QQYHRLPLS showed nd (0 of 3 replicates; controls 0 of 9). Variant KSHQSVLYESRNKNSQN / WASTRES / QQYHRLPLS showed nd (0 of 3 replicates; controls 0 of 9).

Three control strains display no target. For library AAYL50, 18% of the pairings with them gave a signal, with a median of 4.19 and one signal in twenty below 2.99, so weak values seen in few replicates may be background. The control count says in how many pairings with the empty strains this scFv gave a signal.

Data: MIT Lincoln Laboratory AlphaSeq set, Engelhart et al. 2022, doi:10.1038/s41597-022-01779-4, as distributed in FLAb.